System: MOLM-13 cells (FLT3-ITD)
Assay: CellTiter-Glo cell viability (combination)
Format: cell-based, human
Conditions: MOLM-13, 72 hours, average CI
Description: Three cell lines which harbor FLT3-ITD were used for the drug combination studies (MV-4-11, MOLM-13, and MOLM-14).
Cells were treated with the drugs (single agent or combination) for 72 hours. Drug combination activity was determined by first measuring cell viability with CellTiter-Glo®, followed by the calculation of the EC50 corresponding to single agent activity, using the R DRC package (R Core Team, 2017). The combination index (CI) values were computed using the Chou-Talalay method (Chou T, Cancer Research., 2010 70(2): 440-6.), based on the viability of each drug alone and in combination, across all concentrations tested. In brief, CI was defined as: […]

COc1cccc2c1C(=O)c1c(O)c3c(c(O)c1C2=O)C[C@@](O)(C(C)=O)C[C@@H]3O[C@H]1C[C@H](N)[C@H](O)[C@H](C)O1 [Daunorubicin, daunorubicin]
combination index (CI) of AML drug in combination with MPC-0767: CI = 0.9

Reference: patent US20200253979A1, “THERAPEUTIC METHODS RELATING TO HSP90 INHIBITORS” (AI Therapeutics, Inc., priority 2017, published 2020)
